{
  "sequences": {"note": "The chains behind the UniProt entries cited, without tags or fusion partners.", "UniProt O15245, whole entry": "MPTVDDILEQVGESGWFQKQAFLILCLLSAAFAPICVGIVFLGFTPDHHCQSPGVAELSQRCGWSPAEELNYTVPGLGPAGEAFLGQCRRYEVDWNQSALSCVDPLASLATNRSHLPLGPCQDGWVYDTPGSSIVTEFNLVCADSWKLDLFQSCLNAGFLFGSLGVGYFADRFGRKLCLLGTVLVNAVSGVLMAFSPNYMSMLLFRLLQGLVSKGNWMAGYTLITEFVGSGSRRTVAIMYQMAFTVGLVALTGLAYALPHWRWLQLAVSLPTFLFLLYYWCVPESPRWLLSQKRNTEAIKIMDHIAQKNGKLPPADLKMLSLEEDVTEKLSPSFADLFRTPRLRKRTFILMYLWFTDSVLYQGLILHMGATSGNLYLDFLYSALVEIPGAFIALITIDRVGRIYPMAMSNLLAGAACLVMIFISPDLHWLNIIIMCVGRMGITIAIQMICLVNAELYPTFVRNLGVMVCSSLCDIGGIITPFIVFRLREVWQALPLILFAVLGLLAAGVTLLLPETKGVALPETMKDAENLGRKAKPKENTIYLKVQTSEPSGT"},
  "source": "BindingDB's records for 31597043",
  "target": "Solute carrier family 22 member 1 (Homo sapiens, UniProt O15245)",
  "test": "ASSAY_NAME: ChEMBL_1823590 (CHEMBL4323354) DESCRIPTION: Inhibition of human OCT1 expressed in HEK293 cells assessed as reduction in ASP+ substrate uptake by microplate reader based analysis",
  "note": "This is a selection: effects in other tests are not listed, and their absence says nothing.",
  "data": [
    {"smiles": "CCC(=O)N(c1ccccc1)C1CCNCC1", "values": [
      {"measurement": "IC50", "result": 118, "unit": "µM"}
    ]}
  ]
}
